Values of other authors, collected in US12100485B2, “Machine learning and molecular simulation based methods for enhancing binding and activity prediction” (The Board of Trustees of the Leland Stanford Junior …, priority 2018, dated 2024).

Tested on: μOR

## CN1CC[C@]23c4c5ccc(O)c4O[C@H]2C(=O)CC[C@H]3[C@H]1C5 [hydromorphone]
  Action: agonist
